{"source": "patent US4282232A", "about": "“Nitroimidazole radiosensitizers for hypoxic tumor cells and compositions thereof” (priority 1979, dated 1981)", "key": {"in vivo": {"test": "in vivo", "details": "mouse, ip", "protocol": "Neurotoxicity in mice was determined using mice of strain BDF1. This was carried out by (1) determining the LD50 of each compound in mice and (2) observing the animals for acute neurotoxic symptoms such as convulsions. The drugs were either solubilized or suspended in normal saline and administered intraperitoneally to groups of 10 mice."}, "[1]": {"tested_on": "Chinese hamster cells line V-79-753 B", "test": "Radiosensitization of hypoxic Chinese hamster cells (Cobalt-60 irradiation, enhancement ratio)", "assay_type": "cell-based", "details": "1395 rad Cobalt-60", "protocol": "Asynchronous monolayer cultures of Chinese hamster cells line V-79-753 B were employed in all the experiments. The monolayers were derived from exponentially-growing cultures. Methods of culturing and handling have been reported earlier by Cooke et al, Rad. Res. 65, 152 (1976). The plated cultures were rendered hypoxic in sealed dural containers capable of holding four petri dishes, by purging with nitrogen (oxygen-free grade) for one hour. Irradiation was carried out by using a Cobalt-60 source at a dose rate of approximately 310 rad/min according to the procedure described previously be Cooke et al, supra. A dose of 1395 rad was given to hypoxic cells in glass petri dishes in the presence of a given drug concentration (2000 cells/dish). Cell survival was estimated from unirradiated hypoxic cells exposed to the same drug concentration. Cultures were incubated for 6 days at 37° C. in an atmosphere of 5% CO2; the resulting colonies were fixed in absolute ethanol, stained with methylene blue and counted."}}, "data": [{"smiles": "COCC(O)Cn1ccnc1[N+](=O)[O-]", "note": "(centres unmarked) [F, Misonidazole]", "values": [{"measurement": "LD50 at 24 h", "setting": "in vivo", "value": 1600, "unit": "mg/kg"}, {"measurement": "Radiosensitization (enhancement ratio at 1mM in chinese hamster cells)", "setting": "[1]", "value": 2.2}]}]}
